## Binding of CDR-mutated scFvs to a peptide of the spike HR2 region

The measurements come from Li et al. 2023 (doi:10.1038/s41467-023-39022-2) through the FLAb antibody collection.

All variants were tested on one target, the spike HR2 peptide PDVDLGDISGINAS (SARS-CoV-2).

Ab-14 is the parent antibody, in scFv form: VH, then a 15-residue (Gly4Ser)3 linker, then VL. The light chain is unchanged in all variants.
VH: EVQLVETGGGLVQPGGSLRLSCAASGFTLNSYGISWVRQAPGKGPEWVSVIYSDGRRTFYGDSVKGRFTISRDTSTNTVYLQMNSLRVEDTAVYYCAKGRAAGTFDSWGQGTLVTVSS
VL: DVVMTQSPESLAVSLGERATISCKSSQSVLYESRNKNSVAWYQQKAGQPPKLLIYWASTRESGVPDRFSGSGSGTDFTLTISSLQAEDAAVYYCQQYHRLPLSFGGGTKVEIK

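The starting antibody came from a phage panning campaign against this peptide. The variants were designed computationally from a first round of random CDR variants and then made and measured. Group labels follow the data file (Ctrl: baseline library sampled from a position-specific scoring matrix, with some repeated check sequences; Rand: our label for a block that the file lists under HC and that is probably the random mutants of the ten best first-round binders; GP: Gaussian process model; GPLM: also part of the Gaussian process libraries; HC: hill climbing; Gen: genetic algorithm; Gibbs: Gibbs sampling; a sequence that several methods proposed may carry one label only). AlphaSeq pools MATa yeast showing the antibodies with MATalpha yeast showing the peptide. Pairs that bind mate more often; barcode pairs of the diploids are counted by sequencing. A regression on co-assayed BCL2-family reference pairs converts the normalised counts of each replicate to an apparent Kd. The assay was run in six technical replicates.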

Positions count from residue 1 of the parent VH; T28S puts S in place of T.
This list holds designs with at most six substitutions.
Values are log10 of the apparent Kd in nM; lower means stronger binding.
Replicates are averaged; those with no signal do not enter the mean.
Where no diploid with the target was found in any replicate, the entry reads "nd": below detection, most likely a poor binder, though not proof of it.
Of ten entries with the parent sequence, four were seen in most replicates (averages 0.34 to 2.37), three in one and three in none, so single entries are noisy.
The range of this assay differs from that of the first round, and the authors advise against merging the two.
The authors' rule: three or more of the six replicates give a measured affinity, fewer mean a poor binder.
Nonspecific signal, from three strains lacking the peptide, appeared in 1% of pairings of all heavy chain designs, centred on 2.08 (5% of these signals below 0.84); values are not corrected for it.
A sequence that the file lists under several names has all its replicates pooled.

- T28S G61K A101T S107A [GPLM_Gen]: -0.87 (5 of 6 replicates)
- T28E S31E G61M A101F [GPLM_HC]: 2.01 (6 of 6 replicates)
- N30E S53A S107I [GP_Gibbs]: 0.56 (6 of 6 replicates)
- L29I [Ctrl]: nd (0 of 6 replicates)
- S31E R56V G61S [GPLM_HC]: -0.01 (6 of 6 replicates)
- T28F S31E G103V S107K [GP_HC]: nd (0 of 6 replicates)
- T28Q S31N G61E [Ctrl]: 1.52 (5 of 6 replicates)
- N30L R56C V64F S107L [Ctrl]: nd (0 of 6 replicates)
- T28A S53A K65R [Ctrl]: 0.35 (6 of 6 replicates)
- S31D F59Y G61I A101T [GP_HC]: 0.93 (5 of 6 replicates)
- T28D A101H D106E [GP_HC]: 2.46 (5 of 6 replicates)
- S31E R56Q G61T A101F [GPLM_HC]: 0.93 (6 of 6 replicates)
- F27A G61F D106E [Ctrl]: nd (0 of 6 replicates)
- G26K D62G R100E A101D [Ctrl]: nd (0 of 6 replicates)
- S31D R57W A101I G103L D106I [Rand]: nd (0 of 6 replicates)
- T28E S31T G61H R100K A101T [GP_Gibbs]: nd (0 of 6 replicates)
- N30S I34V [Ctrl]: nd (0 of 6 replicates)
- S31E R56L G61S [GP_HC]: 1.16 (6 of 6 replicates)
- S53N R100D A101N G103D [Ctrl]: nd (0 of 6 replicates)
- G26K T28G S31E R100K A101T [GP_Gibbs]: 1.49 (4 of 6 replicates)
- S31D D106V S107D [GP_HC]: 2.57 (3 of 6 replicates)
- S31E A101N G103V S107Q [Rand]: nd (0 of 6 replicates)
- N30D A101W [Ctrl+GP_HC]: 0.81 (6 of 12 replicates)
- T28N G61D [Ctrl]: 0.87 (6 of 6 replicates)
- R56K G61I R100Q A101V S107T [GP_Gibbs]: 0.98 (2 of 6 replicates)
- T28G S31E S63Q A101N [GP_Gen]: 1.01 (6 of 6 replicates)
- T28S R56K R100S [GP_Gen]: 0.25 (6 of 6 replicates)
- G26M T28D R100E [GPLM_Gen]: 1.83 (4 of 6 replicates)
- T28D F59A A101M [GP_Gen]: -0.03 (6 of 6 replicates)
- G26M S31D F59Q G61I [GPLM_HC]: nd (0 of 6 replicates)
- G61H R100K T104I S107T [GP_HC]: nd (0 of 6 replicates)
- T28S S63Q R100Q A101T [GPLM_Gen]: 0.60 (4 of 6 replicates)
- T28G N30K S53A R100K [GP_Gibbs]: 1.08 (6 of 6 replicates)
- R100M S107L [Ctrl]: 1.49 (1 of 6 replicates)
- T28S G61T A101V [GPLM_Gen]: 0.20 (6 of 6 replicates)
- G26K T28E R100K A101T S107T [GP_Gibbs]: 1.98 (6 of 6 replicates)
- R56M G61S [Ctrl+GPLM_HC]: 0.83 (12 of 12 replicates)

Top 6 of the variants detected in all replicates, tightest first:

{"changes": "T28D F59A A101M", "group": "GP_Gen", "log10 Kd (nM), mean": "-0.03", "detected": "6 of 6"}
{"changes": "S31E R56V G61S", "group": "GPLM_HC", "log10 Kd (nM), mean": "-0.01", "detected": "6 of 6"}
{"changes": "T28S G61T A101V", "group": "GPLM_Gen", "log10 Kd (nM), mean": "0.20", "detected": "6 of 6"}
{"changes": "T28S R56K R100S", "group": "GP_Gen", "log10 Kd (nM), mean": "0.25", "detected": "6 of 6"}
{"changes": "T28A S53A K65R", "group": "Ctrl", "log10 Kd (nM), mean": "0.35", "detected": "6 of 6"}
{"changes": "N30E S53A S107I", "group": "GP_Gibbs", "log10 Kd (nM), mean": "0.56", "detected": "6 of 6"}